According to patent US11160797B2, “Pyridinone derivatives and their use as selective ALK-2 inhibitors” (NOVARTIS AG, priority 2017, dated 2021):

Test system: HuH7 cells, BMP response element (BRE) luciferase reporter, BMP6 stimulated
Test: BMP signaling reporter gene assay
Format: cell-based
Conditions: Homo sapiens, Huh-7; BMP6 100 ng/ml; read-out: MSD HuH7 cell BMP reporter IC50

CC(C)n1cc(-c2cncc(-c3ccc4c(c3)NC(=O)C4(C)C)c2)ccc1=O [Example 32, 6-(1′-isopropyl-6′-oxo-1′,6′-dihydro-[3,3′-bipyridin]-5-yl)-3,3-dimethylindolin-2-one]
IC50: 0.07 µM
